Data from PubChem BioAssay AID1713 (Vanderbilt High Throughput Screening Facility, 2009).
This is a selection; strong and weak results do not stand in their true shares. Records with an inconclusive call do not appear. Activity calls are given as the source filed them.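 Rule for the calls: active = thallium flux slope above the same plate's solvent-only control mean plus 3 SD; inconclusive = the two replicate wells disagree; inactive = no significant difference from solvent-only control wells.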

Chains of the proteins cited; added tags and fusions are not shown.
UniProt Q9H2X9, whole entry: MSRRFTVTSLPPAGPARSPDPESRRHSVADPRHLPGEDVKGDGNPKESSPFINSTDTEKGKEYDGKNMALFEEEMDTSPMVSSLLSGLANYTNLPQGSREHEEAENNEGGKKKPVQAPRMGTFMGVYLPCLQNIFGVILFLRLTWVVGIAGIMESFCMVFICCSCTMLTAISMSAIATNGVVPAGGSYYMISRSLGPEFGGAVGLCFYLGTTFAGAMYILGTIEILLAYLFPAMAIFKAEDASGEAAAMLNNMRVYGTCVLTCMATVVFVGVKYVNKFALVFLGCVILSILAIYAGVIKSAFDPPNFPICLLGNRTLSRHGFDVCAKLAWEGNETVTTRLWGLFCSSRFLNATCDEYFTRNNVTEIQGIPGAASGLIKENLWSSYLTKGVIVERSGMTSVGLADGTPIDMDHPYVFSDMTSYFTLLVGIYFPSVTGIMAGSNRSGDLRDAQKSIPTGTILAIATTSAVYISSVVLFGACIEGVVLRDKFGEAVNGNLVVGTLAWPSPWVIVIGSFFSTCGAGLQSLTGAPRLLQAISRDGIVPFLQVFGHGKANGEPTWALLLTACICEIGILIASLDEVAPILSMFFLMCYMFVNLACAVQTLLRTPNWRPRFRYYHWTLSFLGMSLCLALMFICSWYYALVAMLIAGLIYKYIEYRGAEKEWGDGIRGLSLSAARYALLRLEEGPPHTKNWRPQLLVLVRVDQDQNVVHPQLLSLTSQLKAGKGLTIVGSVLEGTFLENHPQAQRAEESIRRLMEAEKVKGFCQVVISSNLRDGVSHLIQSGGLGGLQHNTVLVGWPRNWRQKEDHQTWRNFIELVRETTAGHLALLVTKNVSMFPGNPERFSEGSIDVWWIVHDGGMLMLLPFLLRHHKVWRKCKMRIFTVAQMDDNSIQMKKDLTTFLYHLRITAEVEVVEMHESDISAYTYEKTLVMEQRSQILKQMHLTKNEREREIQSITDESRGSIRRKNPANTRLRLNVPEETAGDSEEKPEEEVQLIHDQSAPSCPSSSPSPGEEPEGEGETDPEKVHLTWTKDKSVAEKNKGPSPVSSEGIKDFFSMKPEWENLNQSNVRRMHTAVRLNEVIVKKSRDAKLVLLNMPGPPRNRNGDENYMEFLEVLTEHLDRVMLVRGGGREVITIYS

What follows are molecules tested against Solute carrier family 12 member 5 (Homo sapiens) (UniProt Q9H2X9) (assay: retest of KCC2 transport modulators without sodium – cell-based, HEK293 KCC2, thallium flux, secondary assay, confirmation (AID 1713)). Conditions: FluoZin2 fluorescence, at 10 µM, active compounds read high.
Outline: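 Test system: KCC2-expressing HEK cells. Medium: Sodium-free N-methylglucamine chloride buffer. Schedule: dye loading 48 min. Technique: kinetic thallium-flux fluorescence imaging.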
`CP(=O)(Nc1ccccc1)Oc1ccc(F)cc1` (stereo unspecified) was tested, and the normalised thallium flux (F/F0 slope) was inactive: 0.0109.
